In the assay the test system is Escherichia coli.

For orientation: MIC means the lowest concentration found to suppress growth. Low values mean inhibition by little substance, high ones a need for much substance. GENTAMICIN registered a minimal inhibitory concentration (MIC) of 0.5 µg/mL.

The record behind these values is ChEMBL document CHEMBL2413018, “Nonclassical antifolates, part 4. 5-(2-aminothiazol-4-yl)-4-phenyl-4H-1,2,4-triazole-3-thiols as a new class of DHFR inhibitors: synthesis, biological evaluation and molecular modeling study” (Eur J Med Chem, 2013).
